Only a part is listed here, and it is no random draw. Calls of active or inactive are those of the source.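 The calls were made as follows: active = activation above the run cutoff, the mean activation of all test compounds plus 3 SD (cut at about 40% in these data); inactive = the rest.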
Experiment: ATP EC20 calcium response enhancers, parental CHO-K1 – cell-based, Fluo-8 calcium fluorescence, full deck, 1536-well, counter-screen for M1 PAM project, primary screen (AID 602247);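 also: peak over basal fluorescence ratio in a 140 s read after ATP addition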
Conditions: parental CHO-K1, ATP EC20, Fluo-8 calcium fluorescence; at 3 µM; active compounds read high; 0% at ATP EC20, 100% at ATP max

| SMILES | activation |
| --- | --- |
| Cc1cc(C)cc(OP(C)(=O)Nc2ccc(C)cc2C)c1 (centres undefined) | inactive: 6.76% |
| CCOC(=O)c1ccc(NP(C)(=O)Oc2cc(C)cc(C)c2)cc1 (centres undefined) | inactive: -9.62% |
| COc1cc(C(=O)NCC2(N3CCOCC3)CCCCC2)cc(Cl)c1OC(C)C | inactive: -5.97% |
| COc1ccccc1OP(C)(=O)Nc1cccc(Br)c1 (centres undefined) | inactive: 14.3% |
| CP(=O)(Nc1cccc(Br)c1)Oc1ccccc1 (centres undefined) | inactive: 19.1% |
| Cc1cc(C)cc(OP(C)(=O)Nc2ccccn2)c1 (centres undefined) | inactive: 4.48% |
| Cc1ccc(C)c(NP(C)(=O)Oc2ccccc2)c1 (centres undefined) | inactive: 5.15% |
| O=C(O)c1cccc(Nc2c([N+](=O)[O-])cc([N+](=O)[O-])cc2[N+](=O)[O-])c1 | inactive: 18.5% |
| CC1=NCCc2c1[nH]c1ccccc21.O=[N+]([O-])c1cc([N+](=O)[O-])c(O)c([N+](=O)[O-])c1 | inactive: 18.4% |
| O=[N+]([O-])c1cc([N+](=O)[O-])c(Nc2nnnn2CCO)c([N+](=O)[O-])c1 | inactive: -2.18% |
| CC1=C2N=C(C=C3N=C(C(C)=C4[N-][C@@](C)([C@@H]5N=C1[C@](C)(CCC(=O)NC[C@@H](C)OP(=O)([O-])O[C@H]1[C@@H](O)[C@@H](n6cnc7cc(C)c(C)cc76)O[C@@H]1CO)[C@H]5CC(N)=O)[C@@](C)(CC(N)=O)[C@@H]4CCC(N)=O)[C@@](C)(CC(N)=O)[C@@H]3CCC(N)=O)C(C)(C)[C@@H]2CCC(N)=O.[C-]#N.[Co+3] | inactive: 25.3% |
| CN(C)C1(CNC(=O)c2ccc(S(C)(=O)=O)cc2)CCCCC1 | inactive: 10.2% |
| CCOC(=O)C(CC)C1=NC(C)(C)Cc2ccccc21.O=[N+]([O-])c1cc([N+](=O)[O-])c(O)c([N+](=O)[O-])c1 (centres undefined) | inactive: 1.84% |
| CP(=O)(Nc1ccc(SC(F)(F)F)cc1)Oc1ccccc1 (centres undefined) | inactive: -2.83% |
| CCCOc1ccc(NP(C)(=O)Oc2ccc(Cl)cc2)cc1 (centres undefined) | inactive: 14.6% |
| COc1ccc(-c2ccccn2)cc1.O=[N+]([O-])c1cc([N+](=O)[O-])c(O)c([N+](=O)[O-])c1 | inactive: 14.4% |
| CN1CCCCC1COC(=O)C1(O)c2ccccc2CCc2ccccc21 (centres undefined) | inactive: 16.4% |
| COc1ccccc1OP(C)(=O)Nc1c(C)cccc1C (centres undefined) | inactive: 30.9% |
| CN(Cc1cccnc1)C(=O)COc1ccc(Cl)c(Cl)c1.O=[N+]([O-])c1cc([N+](=O)[O-])c(O)c([N+](=O)[O-])c1 | inactive: 8.92% |
| O=[N+]([O-])c1cc([N+](=O)[O-])c(-n2nnc3ccccc32)c([N+](=O)[O-])c1 | inactive: -8.67% |
| Cc1nc2ccc3ccccc3c2s1.O=[N+]([O-])c1cc([N+](=O)[O-])c(O)c([N+](=O)[O-])c1 | inactive: 23.2% |
| O=[N+]([O-])c1cc([N+](=O)[O-])c(-c2cnn(-c3ccccc3)c2)c([N+](=O)[O-])c1 | inactive: -6.74% |
| CCc1ccc(OP(C)(=O)N2CCN(c3ccc([N+](=O)[O-])cc3)CC2)cc1 (centres undefined) | inactive: -1.77% |
| CP(=O)(NC(=O)Nc1ccccc1)Oc1ccccc1 (centres undefined) | inactive: -11.7% |
| Cc1cc(C)cc(OP(C)(=O)Nc2ccc(SC(F)(F)F)cc2)c1 (centres undefined) | inactive: -7.78% |
| CP(=O)(Nc1ccc(SC(F)(F)F)cc1)Oc1ccc(Cl)cc1 (centres undefined) | inactive: 6.36% |
| Cc1cccc(C)c1OP(C)(=O)Nc1ccc(SC(F)(F)F)cc1 (centres undefined) | inactive: 15% |

| SMILES | activation |
| --- | --- |
| Cc1ccc(Nc2c([N+](=O)[O-])cc([N+](=O)[O-])cc2[N+](=O)[O-])cc1 | inactive: 4.33% |
| CP(=O)(Oc1ccccc1)OC(c1ccccc1)C(F)(F)F (centres undefined) | inactive: -2.56% |
| CP(=O)(Nc1ccccn1)Oc1ccc(Cl)cc1 (centres undefined) | inactive: 20.5% |
| CCOP(C)(=S)SCC(=O)NC(C)C(=O)O (centres undefined) | inactive: 10.4% |
| O=[N+]([O-])c1cc([N+](=O)[O-])c(O)c([N+](=O)[O-])c1.c1ccc(Oc2ccncc2)cc1 | inactive: -1.02% |
| CCOC(=O)c1ccc(NP(C)(=O)Oc2ccc(OC)cc2)cc1 (centres undefined) | inactive: 8.58% |
| CCCCOc1ccc(C(=O)NCC2(N3CCCCC3)CCCCC2)cc1OC | inactive: 19.4% |
| COc1ccccc1OP(C)(=O)Nc1ccccc1 (centres undefined) | inactive: -13% |
| CP(=O)(Nc1ccccc1Br)Oc1ccccc1 (centres undefined) | inactive: 20.9% |
| CP(=S)(Nn1cnnc1)Oc1ccccc1 (centres undefined) | inactive: 3.95% |
| CC(C)(C)c1ccc(OP(C)(=O)Nc2ccc(SC(F)(F)F)cc2)cc1 (centres undefined) | inactive: 11.3% |
| Cc1cccc(C)c1OP(C)(N)=O (centres undefined) | inactive: -7.54% |
| O=[N+]([O-])c1ccc2c(c1)C=Nc1ccccc1O2 | inactive: -13.3% |
| O=[N+]([O-])c1cc([N+](=O)[O-])c(Nc2cccnc2)c([N+](=O)[O-])c1 | inactive: -9.25% |
| COc1cc(C(=O)NCC2(N3CCOCC3)CCCCC2)ccc1OCC(C)C | inactive: 16.5% |
| COc1ccccc1OP(C)(=O)Nc1cc(Cl)ccc1C (centres undefined) | inactive: 14.3% |
| COc1ccc(OP(C)(=O)Nc2cccc(F)c2)cc1 (centres undefined) | inactive: -1.1% |
| Cc1cc(C)cc(OP(C)(N)=O)c1 (centres undefined) | inactive: -4.31% |
| CCOC(=O)c1ccc(NP(C)(=O)Oc2ccccc2)cc1 (centres undefined) | inactive: 25.1% |
| COc1ccccc1OP(C)(=O)Nc1ccc(C)cc1 (centres undefined) | inactive: 20.4% |
| Cc1ccc(NP(C)(=O)Oc2ccccc2)c(C)c1 (centres undefined) | inactive: 30.2% |
| CCN(CC)CCCOC(=O)C(O)(c1ccccc1)c1ccccc1 | inactive: -5.84% |
| COc1ccccc1-c1ccccn1.O=[N+]([O-])c1cc([N+](=O)[O-])c(O)c([N+](=O)[O-])c1 | inactive: -1.74% |
| CN(C)CCOC(=O)C(O)(c1ccccc1)C1CCCC1 (centres undefined) | inactive: 10.9% |
| COc1ccc(OP(C)(=O)Nc2ccccn2)cc1 (centres undefined) | inactive: 18.2% |
| COc1ccccc1OP(C)(=O)Nc1ccc(Br)cc1 (centres undefined) | inactive: 1.53% |
| CCc1ccc(OP(C)(=O)O)cc1 | inactive: -10.4% |
